Test results taken from US7628996B2, “Sterile immunogenic non-tumorigenic tumor cell compositions and methods” (priority 2002, dated 2009).

Tested on: colon tumor cells
Experiment: Disinfection of trimmed colon tumor pieces before dissociation: tumor cell viability, yield, potency
Type: cell-based, human
Conditions: for Potency: per patient tumor sample
Source text: For pathological staging purposes, the pathologist cuts the tumor to determine the deepest margin of penetration. Consequently, the excised tumors are comprised of several pieces of tumor tissue. The tissue was dissected to remove extraneous non-tumor and necrotic tissue. The trimmed tumor pieces were further subdivided to achieve homogeneity and divided into two to four groups for processing according to the experimental design. The tissue was divided as evenly as possible among the samples, taking care to make the tumor pieces in the experimental groups appear as identical as possible. The trimmed pieces were added to a tube containing 40 mL of disinfectant and then treated by shaking for 2 minutes at 200 rpm on a rotating platform shaker. The trimmed tumor pieces were then washed three times with HBSS and then dissociated. The amount of tumor dissociated was determined by weighing the tumor fragments prior to dissociation and after completion of the dissociation cycles. After dissociation, the tumor cell suspension was sampled for percent tumor cell viability, number of viable tumor cells, tumor cell potency and bioburden. The yield was defined as the number of viable tumor cells obtained per gram of tumor that was actually dissociated. The bioburden was normalized to CFU/10^7 viable tumor cells, approximately one dose of product.
Tumor sample 500-0051-KNO was washed with saline, a second wash with 1% Triton X-100 and followed by three additional saline washes (see Example 1). The resultant bioburden was below the limit of detection of the assay. In order to evaluate the ability of a disinfectant to remove bioburden, one to two logs of bioburden must be detectable in the control sample. In order to maximize the possible bioburden in the tumors and present a greater challenge to the disinfectant, the following modifications to the procedure were made: the tumors were minimally washed (one 500 mL quantity) prior to pathological dissection; the dissociations were performed in the absence of gentamicin.

For sodium oxychlorosene [Clorpactin ®], the Potency (0.4% Clorpactin, 2 successive 2 min treatments) was 98% and 97%, the Potency (0.4% Clorpactin, one 2 min treatment) was 99% and 98% and 97% and 100% and 94% and the Potency (0.8% Clorpactin, 2 min) was 96%. For the same substance, the “effect on yield of viable tumor cells (in words)” value (Clorpactin at 0.8% compared with 0.4%) was “further reduction in the yield of viable tumor cells” and the “effect of disinfectant on tumor cell yield (in words)” value (treatment of trimmed tumor pieces, relative to control) was “more moderate reduction in tumor cell yield relative to the control; also recorded: only moderate losses in cell yield relative to the control”.

Values joined by “and” are separate entries in the source; they are usually repeats but may differ in a detail not shown here. Equal values may be shown once. “Also recorded” adds a separate entry of the source.
